Tested on: HI-HeLa cells
Assay: Cytotoxicity (CC50) in mock-infected HI-HeLa cells, antirhinoviral assay
Assay type: cell-based

Substance: Ethyl-3-(CBZ-L-LeuΨ[COCH2]-D/L-Phe-L-Gln)-E-Propenoate [1 + 9(˜1:1)]
- CC50: > 320 µM

— patent US6649639B2, “Antipicornaviral compounds, compositions containing them, and methods for their use” (priority 1997, dated 2003)
